# Experimental data taken from patent US4518779A, “1,2,3,4-Tetrahydro-1-aminomethyl-4-phenyl isoquinolines” (Pennwalt Corporation, priority 1982, dated 1985).
# Test system: [^3 H]-QNB binding in brain homogenates
# Assay: in vitro inhibition of the binding of tritiated quinuclidinyl benzylate in brain
# Details: read-out: (^3 H)QNB rating: molar concentration required to inhibit by 50% the binding of [^3 H]QNB, smaller numbers indicate greater potency
row,Compound,IC50 [µM]
1,"CNC[C@@H]1NC[C@H](c2ccccc2)c2ccccc21 (relative stereo) [Example 1 cis form, cis-1,2,3,4-tetrahydro-1-methylaminomethyl-4-phenylisoquinoline dihydrochloride]",2.6
2,"CNC[C@@H]1NC[C@@H](c2ccccc2)c2ccccc21 (relative stereo) [Example 1 trans form, trans-1,2,3,4-tetrahydro-1-methylaminomethyl-4-phenylisoquinoline dihydrochloride]",3.6
3,"CN(C)C[C@@H]1NC[C@H](c2ccccc2)c2ccccc21 (relative stereo) [Example 2, 1,2,3,4-tetrahydro-1-dimethylaminomethyl-4-phenylisoquinoline dihydrochloride]",4
4,"CCNC[C@@H]1NC[C@H](c2ccccc2)c2ccccc21 (relative stereo) [Example 4, 1,2,3,4-tetrahydro-1-(ethylamino)methyl-4-phenylisoquinoline dihydrochloride]",7

# Where a name gives a salt, the structure may show the parent alone.
